Test results published in patent US10336760B2, “Inhibitors of cyclin-dependent kinase 7 (CDK7)” (SYROS PHARMACEUTICALS, INC., priority 2014, dated 2019).
pIC50: −log10 of the molar value.

The chains behind the UniProt entries cited, without tags or fusion partners. Where a name states a change or a piece, a line headed by the entry shows the natural chain unless it says otherwise.
UniProt P50613: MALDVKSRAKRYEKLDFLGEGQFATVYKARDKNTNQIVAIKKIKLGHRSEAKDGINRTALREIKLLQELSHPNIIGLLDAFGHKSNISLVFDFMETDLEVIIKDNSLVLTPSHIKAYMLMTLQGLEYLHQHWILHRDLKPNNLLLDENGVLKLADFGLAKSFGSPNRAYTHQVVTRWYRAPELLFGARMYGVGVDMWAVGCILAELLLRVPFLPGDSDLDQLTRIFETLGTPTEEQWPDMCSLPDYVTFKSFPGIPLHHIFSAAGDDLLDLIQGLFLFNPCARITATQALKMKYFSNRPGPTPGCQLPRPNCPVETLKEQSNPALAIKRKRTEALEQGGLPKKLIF

Target: T1, CDK7 (Homo sapiens, UniProt P50613)
T1 construct: purchased Life Technologies (Grand Island, N.Y.), Adapta kinase assay service
Experiment: CDK7 kinase activity, Adapta kinase assay (Life Technologies)
Type: biochemical
Details: concentrations from 10 μM down to 0.514 nM, 3-fold serial dilutions, calculated IC50, read-out: CDK7 Inhibition (IC50)
Protocol: Compounds of the invention were assayed for CDK7 activity at Life Technologies (Grand Island, N.Y.) using their commercially available Adapta® kinase assay services. […] Details of this assay, including substrates used, are available on the Life Technologies web site (http://www.lifetechnologies.com/us/en/home/life-science/drug-discovery/target-and-lead-identification-and-validation/kinasebiology/kinase-activity-assays.html).

- pIC50: < 6.00
Structure (SMILES): C=CC(=O)N(CCCCCCNc1cc(NCc2ccccc2)n2ncc(C(C)C)c2n1)C(=O)C=C [Compound 100, N-acryloyl-N-(6-((7-(benzylamino)-3-isopropylpyrazolo[1,5-a]pyrimidin-5-yl)amino)hexyl)acrylamide]
